From ChEMBL document CHEMBL1671788, “Discovery, synthesis, and structure-activity relationship development of a series of N-(4-acetamido)phenylpicolinamides as positive allosteric modulators of metabotropic glutamate receptor 4 (mGlu(4)) with CNS exposure in rats” (J Med Chem, 2011)

Chains of the proteins cited; added tags and fusions are not shown. Lines headed by an entry give the natural chain unless they say otherwise; changes in a name come on top.
UniProt Q14833: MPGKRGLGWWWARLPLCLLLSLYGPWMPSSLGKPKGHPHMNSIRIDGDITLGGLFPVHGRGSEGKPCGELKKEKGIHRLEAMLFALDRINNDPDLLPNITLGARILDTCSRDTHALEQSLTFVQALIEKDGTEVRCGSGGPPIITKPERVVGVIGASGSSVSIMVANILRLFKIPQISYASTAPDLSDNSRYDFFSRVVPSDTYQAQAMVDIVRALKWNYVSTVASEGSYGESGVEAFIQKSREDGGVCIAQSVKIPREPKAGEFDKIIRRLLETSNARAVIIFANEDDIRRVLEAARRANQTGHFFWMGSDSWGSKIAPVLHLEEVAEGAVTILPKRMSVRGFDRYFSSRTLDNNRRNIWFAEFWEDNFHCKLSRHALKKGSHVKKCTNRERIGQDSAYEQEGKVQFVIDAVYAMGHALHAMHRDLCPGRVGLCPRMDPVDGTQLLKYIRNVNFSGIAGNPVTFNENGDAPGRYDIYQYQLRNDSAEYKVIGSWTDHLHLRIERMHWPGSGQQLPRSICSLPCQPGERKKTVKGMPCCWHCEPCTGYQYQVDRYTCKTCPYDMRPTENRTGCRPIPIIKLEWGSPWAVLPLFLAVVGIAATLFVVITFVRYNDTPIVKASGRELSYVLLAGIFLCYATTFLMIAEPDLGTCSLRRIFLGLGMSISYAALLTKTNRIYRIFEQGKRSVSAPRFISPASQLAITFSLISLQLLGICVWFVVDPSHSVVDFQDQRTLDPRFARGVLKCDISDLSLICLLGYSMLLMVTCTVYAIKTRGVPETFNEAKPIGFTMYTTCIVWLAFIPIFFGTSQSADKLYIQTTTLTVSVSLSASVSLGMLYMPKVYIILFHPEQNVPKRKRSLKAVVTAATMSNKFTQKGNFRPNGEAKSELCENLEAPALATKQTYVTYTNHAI

Molecular target: Metabotropic glutamate receptor 4 (Homo sapiens, UniProt Q14833)
Test: Positive allosteric modulation of human mGluR4 expressed in CHO cells coexpressing Gqi5 assessed as calcium mobilization
Assay type: functional, cell-based

Row | Compound | EC50 [nM]
1 | COc1cc(NC(=O)c2ccccn2)ccc1NC(=O)c1ccccc1Cl | 99.5
2 | O=C(Nc1ccc(NC(=O)c2ccccc2Cl)c(F)c1)c1ccccn1 | 556
